Reference: patent publication US12139488B2, “Pyrido[3,2-d]pyrimidine compounds uses thereof for treating a proliferative disease” (Universite de Montreal, priority 2021, dated 2024)
Where two headings read alike, the source gives them in different places.

Tested on: pERK in HCT-116 cells (KRAS G13D)
Experiment: Phospho-ERK inhibition (AlphaLISA SureFire Ultra p-ERK 1/2), HCT116
Conditions: for IC50: HCT116 cells
Method: All cancer cell lines (A375, A101D, A2058, RKO, HT29 SK-MEL 30, IPC298, HepG2, HCT-116, Lovo, SWV620, SW480, NCI-H358, NCI-H2122, Calu-6, NCIH2087, NCIH1755, NCIH1666 and Mewo) were obtained from ATCC and cultured in RPMI-1640 medium (Gibco) supplemented with 5% heat inactivated fetal bovine serum (FBS, Wisent) at 37° C. under 5% CO2. Cells were maintained in T175 flasks (Greiner). They were passaged by removing the culture medium, washing once in 10 mL of room temperature Phosphate Buffered Saline (PBS; Wisent) and incubating at 37° C. with 2 mL of 0.05% Trypsin (Thermo-Fisher). Trypsin was then inactivated by adding complete growth medium and the cells were then replated in a T175 culture dish at the appropriate dilution. All cell lines were routinely tested for mycoplasma contamination. Tissue type and mutational status of each cell line can be found in Table B.
AlphaLISA® SureFire® Ultra™ p-ERK 1/2 (Thr202/Tyr204) analysis was conducted on cells plated in 100 μL of complete RPMI-1640 growth medium in 96-well flat-bottomed transparent dishes (Costar) at a density indicated in Table C. Cells were maintained overnight at 37° C. under 5% CO2 before treatment with compounds' dilution series for one hour. The cell density in cells/cm^2 corresponds to cell number divided by the area of one well of a 96-well plate ([…]).
In a dilution series 100 μL/well of test substance dilution prepared in complete RPMI-1640 growth media was added to the cells. The dilution series is selected so that ten concentrations cover a range from 10 μM to 0.33 nM. If necessary the initial concentration of 10 μM is increased to 100 μM or lowered to 1 μM (as in the case of A375 and H1666 cells, which are generally more sensitive to the compounds) and further dilution is carried out accordingly. The final concentration of DMSO in the assay is set at 0.5%.
After treatment, media was removed and cells were lysed in 50 μL of 1× AlphaScreen Ultra Lysis Buffer (Perkin Elmer). The AlphaLISA® SureFire® Ultra™ p-ERK 1/2 (Thr202/Tyr2O4) (PerkinElmer) reactions were performed with 5 μL of cell lysate according to the manufacturer's specifications in 384-well proxyplates (Perkin Elmer) followed by overnight incubation of the reactions at room temperature in a humidified chamber. After completion of the reactions, the signals were recorded on an EnVision plate reader (Perkin Elmer) using built in AlphaLISA® settings.
The effect of each compound dilution on the pERK signal was expressed in % inhibition and calculated as follows. An internal 100% inhibition control ([…] trametinib, cat #HY-10999; MedChem Express; CAS #871700-17-3) was included in each plate and used as a measure of pERK background. First, the value obtained for trametinib was subtracted from each data point. The average of DMSO (vehicle) controls (set as 0% inhibition) was established and used to calculate % inhibition: % inhibition=100*(1-((pERK signalcompound)/(pERK signalDMSO)))
The ability of each compound to inhibit pERK signal was expressed as an IC50 value obtained by plotting the inhibition values for each data point of a dilution series and fitting the obtained curves using a log(agonist) versus response-variable slope (four parameters) function using GraphPadPrism (V7.0) or Dotmatics Screening Ultra platform.
When present, paradoxical pERK induction is inferred from the negative % inhibition values observed in the pERK IC50 curves of a compound.

[1] = read-out: HCT116 pERK IC50, class symbol

IC50 [1] [µM] | SMILES | also measured
< 0.5 | COC[C@H]1CCCN1S(=O)(=O)c1cn(-c2ccc3ncnc(Nc4c(F)ccc(NS(=O)(=O)c5cccc(Cl)c5Cl)c4F)c3n2)c2ccccc12 | –
< 0.5 | Cc1c(Cl)cccc1S(=O)(=O)Nc1ccc(F)c(Nc2ncnc3ccc(-n4cc(S(=O)(=O)N5CCC(O)CC5)c5ccccc54)nc23)c1F | –
< 0.5 | Cc1c(F)cccc1S(=O)(=O)Nc1ccc(F)c(Nc2ncnc3ccc(-n4nc(C(=O)N(C)Cc5ccncn5)c5ccccc54)nc23)c1F | –
0.5 to 1 | CN(C1CCOC1)S(=O)(=O)c1cn(-c2ccc3ncnc(Nc4c(F)ccc(NS(=O)(=O)c5cccc(Cl)c5Cl)c4F)c3n2)c2ccccc12 (stereo not shown) | –
< 0.5 | O=S(=O)(Nc1ccc(F)c(Nc2ncnc3ccc(-n4ccnn4)nc23)c1F)c1cccc(Cl)c1Cl | –
0.5 to 1 | Cc1ncn(-c2ccc3ncnc(Nc4c(F)ccc(NS(=O)(=O)c5cccc(Cl)c5Cl)c4F)c3n2)c1C | –
< 0.5 | O=S(=O)(Nc1ccc(F)c(Nc2ncnc3ccc(-n4cc(S(=O)(=O)NC5COC5)c5ccccc54)nc23)c1F)c1cccc(Cl)c1Cl | –
< 0.5 | CN(CC(F)F)S(=O)(=O)c1cn(-c2ccc3ncnc(Nc4c(F)ccc(NS(=O)(=O)c5cccc(Cl)c5Cl)c4F)c3n2)c2ccccc12 | –
1 to 10 | O=S(=O)(Nc1ccc(F)c(Nc2ncnc3ccc(-n4nccn4)nc23)c1F)c1cccc(Cl)c1Cl | –
0.5 to 1 | O=C(c1cn(-c2ccc3ncnc(Nc4c(F)ccc(NS(=O)(=O)c5cccc(Cl)c5Cl)c4F)c3n2)c2ccc(Cl)cc12)N1C2CCC1COC2 | –
< 0.5 | Nc1cccc2c1ncn2-c1ccc2ncnc(Nc3c(F)ccc(NS(=O)(=O)c4ccccc4C(F)F)c3F)c2n1 | –
< 0.5 | Cc1c(F)cccc1S(=O)(=O)Nc1ccc(F)c(Nc2ncnc3ccc(-n4cc(S(=O)(=O)N5CCC(O)CC5)c5ccccc54)nc23)c1F | –
< 0.5 | Cc1c(F)cccc1S(=O)(=O)Nc1ccc(F)c(Nc2ncnc3ccc(-n4nc(C(=O)N(C)CC(C)(C)O)c5ccccc54)nc23)c1F | –
< 0.5 | Cc1c(F)cccc1S(=O)(=O)Nc1ccc(F)c(Nc2ncnc3ccc(-n4cc(S(=O)(=O)N(C)CCN(C)C)c5ccccc54)nc23)c1F | –
– | Cc1ccc(S(=O)(=O)Nc2ccc(F)c(Nc3ncnc4ccc(-n5cnc6ccccc65)nc34)c2F)c(C)c1F | HCT116 pERK Ymin % (lowest % inhibition value of the IC50 curve, HCT116): −10%; IC50 (read-out: HCT116 pERK IC50 in μM, 1 h treatment): < 0.5 µM
< 0.5 | Cc1ccccc1S(=O)(=O)Nc1ccc(F)c(Nc2ncnc3ccc(-n4cnc5c(N)cccc54)nc23)c1F | –
1 to 10 | O=S(=O)(Nc1ccc(F)c(Nc2ncnc3ccc(-n4cc(S(=O)(=O)N5C6CCC5COC6)c5ccccc54)nc23)c1F)c1cccc(Cl)c1Cl | –
< 0.5 | O=S(=O)(Nc1ccc(F)c(Nc2ncnc3ccc(-n4cnc5c(N6CCCCC6)cccc54)nc23)c1F)c1cccc(Cl)c1Cl | –
0.5 to 1 | COc1ccc(S(=O)(=O)Nc2ccc(F)c(Nc3ncnc4ccc(-n5nnc6ccccc65)nc34)c2F)c(C)c1F | –
< 0.5 | O=S(=O)(Nc1ccc(F)c(Nc2ncnc3ccc(-n4cc(S(=O)(=O)C5CCCC5)c5ccccc54)nc23)c1F)c1cccc(Cl)c1Cl | –
1 to 10 | Cc1nc(-c2ccc3ncnc(Nc4c(F)ccc(NS(=O)(=O)c5cccc(Cl)c5Cl)c4F)c3n2)cs1 | –
< 0.5 | COCCNS(=O)(=O)c1cn(-c2ccc3ncnc(Nc4c(F)ccc(NS(=O)(=O)c5cccc(Cl)c5Cl)c4F)c3n2)c2ccccc12 | –
< 0.5 | CN(C)[C@@H]1CCN(S(=O)(=O)c2cn(-c3ccc4ncnc(Nc5c(F)ccc(NS(=O)(=O)c6cccc(Cl)c6Cl)c5F)c4n3)c3ccccc23)C1 | –
< 0.5 | Cc1c(F)cccc1S(=O)(=O)Nc1ccc(F)c(Nc2ncnc3ccc(-n4cc(S(=O)(=O)N(C)Cc5ccncc5)c5ccccc54)nc23)c1F | –

IC50 [1] [µM] | SMILES | also measured
0.5 to 1 | COc1nccc2c1ncn2-c1ccc2ncnc(Nc3c(F)ccc(NS(=O)(=O)c4cccc(Cl)c4Cl)c3F)c2n1 | –
< 0.5 | COc1ccc(S(=O)(=O)Nc2ccc(F)c(Nc3ncnc4ccc(-n5cc(S(=O)(=O)N(C)CCN(C)C)c6ccccc65)nc34)c2F)c(C)c1Cl | –
< 0.5 | COCCN(C)S(=O)(=O)c1cn(-c2ccc3ncnc(Nc4c(F)ccc(NS(=O)(=O)c5cccc(Cl)c5Cl)c4F)c3n2)c2ccccc12 | –
< 0.5 | Cc1c(F)cccc1S(=O)(=O)Nc1ccc(F)c(Nc2ncnc3ccc(-n4nc(C(=O)N(C)Cc5ccncc5)c(C)c4C)nc23)c1F | –
1 to 10 | O=S(=O)(CC(F)(F)F)c1cn(-c2ccc3ncnc(Nc4c(F)ccc(NS(=O)(=O)c5cccc(Cl)c5Cl)c4F)c3n2)c2ccccc12 | –
< 0.5 | O=S(=O)(Nc1ccc(F)c(Nc2ncnc3ccc(-n4cnc5c(N6CCC(C(F)(F)F)CC6)cccc54)nc23)c1F)c1cccc(Cl)c1Cl | –
< 0.5 | Cc1c(F)cccc1S(=O)(=O)Nc1ccc(F)c(Nc2ncnc3ccc(-n4nc(C(=O)N(C)Cc5cnccn5)c5ccccc54)nc23)c1F | –
1 to 10 | COc1cc(C)c(S(=O)(=O)Nc2ccc(F)c(Nc3ncnc4ccc(-n5cnc6c(N)cccc65)nc34)c2F)cn1 | –
< 0.5 | Cc1ncc(-c2ccc3ncnc(Nc4c(F)ccc(NS(=O)(=O)c5cccc(Cl)c5Cl)c4F)c3n2)s1 | –
< 0.5 | CC(C)(C)CCN1CCC(S(=O)(=O)c2cn(-c3ccc4ncnc(Nc5c(F)ccc(NS(=O)(=O)c6cccc(Cl)c6Cl)c5F)c4n3)c3ccccc23)CC1 | –
< 0.5 | O=S(=O)(Cc1ccccn1)c1cn(-c2ccc3ncnc(Nc4c(F)ccc(NS(=O)(=O)c5cccc(Cl)c5Cl)c4F)c3n2)c2ccccc12 | –
1 to 10 | CN(c1ccccc1F)S(=O)(=O)c1cn(-c2ccc3ncnc(Nc4c(F)ccc(NS(=O)(=O)c5cccc(Cl)c5Cl)c4F)c3n2)c2ccccc12 | –
< 0.5 | CCS(=O)(=O)c1cn(-c2ccc3ncnc(Nc4c(F)ccc(NS(=O)(=O)c5cccc(Cl)c5Cl)c4F)c3n2)c2ccccc12 | –
< 0.5 | COc1ccc(S(=O)(=O)Nc2ccc(F)c(Nc3ncnc4ccc(-n5cnc6c(N)cccc65)nc34)c2F)c(C)c1F | –
1 to 10 | O=S(=O)(Nc1ccc(F)c(Nc2ncnc3ccc(-c4ccn[nH]4)nc23)c1F)c1cccc(Cl)c1Cl | –
< 0.5 | O=S(=O)(Nc1ccc(F)c(Nc2ncnc3ccc(-n4cc(S(=O)(=O)C5CCN(Cc6cn[nH]c6)CC5)c5ccccc54)nc23)c1F)c1cccc(Cl)c1Cl | –
< 0.5 | CC1(CO)CCN(c2cccc3c2ncn3-c2ccc3ncnc(Nc4c(F)ccc(NS(=O)(=O)c5cccc(Cl)c5Cl)c4F)c3n2)CC1 | –
1 to 10 | O=C(c1cn(-c2ccc3ncnc(Nc4c(F)ccc(NS(=O)(=O)c5cccc(Cl)c5Cl)c4F)c3n2)c2ccccc12)C1CC1 | –
1 to 10 | O=S(=O)(Nc1ccc(F)c(Nc2ncnc3ccc(-c4cnc(-c5ccccc5)[nH]4)nc23)c1F)c1cccc(Cl)c1Cl | –
< 0.5 | CC(C)(C#N)S(=O)(=O)c1cn(-c2ccc3ncnc(Nc4c(F)ccc(NS(=O)(=O)c5cccc(Cl)c5Cl)c4F)c3n2)c2ccccc12 | –
< 0.5 | O=S(=O)(Nc1ccc(F)c(Nc2ncnc3ccc(-n4cnc5c(N6CCC(F)(F)CC6)cccc54)nc23)c1F)c1cccc(Cl)c1Cl | –
< 0.5 | O=S(=O)(Nc1ccc(F)c(Nc2ncnc3ccc(-n4cc(S(=O)(=O)C5CCN(C6COC6)CC5)c5ccccc54)nc23)c1F)c1cccc(Cl)c1Cl | –
< 0.5 | COc1ccc(S(=O)(=O)Nc2ccc(F)c(Nc3ncnc4ccc(-n5nc(C(=O)N(C)CCc6ccccn6)c6ccccc65)nc34)c2F)c(C)c1F | –
0.5 to 1 | Cc1cccc2c1ncn2-c1ccc2ncnc(Nc3c(F)ccc(NS(=O)(=O)c4cccc(Cl)c4Cl)c3F)c2n1 | –

SMILES | IC50 [1] [µM] | also measured
O=S(=O)(Nc1ccc(F)c(Nc2ncnc3ccc(-n4cc(S(=O)(=O)C5CCOCC5)c5ccccc54)nc23)c1F)c1cccc(Cl)c1Cl | < 0.5 | –
COCCOc1cccc2c1ncn2-c1ccc2ncnc(Nc3c(F)ccc(NS(=O)(=O)c4cccc(Cl)c4Cl)c3F)c2n1 | < 0.5 | –
CCN(CCOC)S(=O)(=O)c1cn(-c2ccc3ncnc(Nc4c(F)ccc(NS(=O)(=O)c5cccc(Cl)c5Cl)c4F)c3n2)c2ccccc12 | < 0.5 | –
